From patent publication US5712148A (Synaptic Pharmaceutical Corporation, priority 1995, dated 1998)

Sequences of proteins named here, by UniProt entry; tags and fusion partners are left off. A change or cut given only in a name is not applied to a line headed by its entry.
UniProt P48065: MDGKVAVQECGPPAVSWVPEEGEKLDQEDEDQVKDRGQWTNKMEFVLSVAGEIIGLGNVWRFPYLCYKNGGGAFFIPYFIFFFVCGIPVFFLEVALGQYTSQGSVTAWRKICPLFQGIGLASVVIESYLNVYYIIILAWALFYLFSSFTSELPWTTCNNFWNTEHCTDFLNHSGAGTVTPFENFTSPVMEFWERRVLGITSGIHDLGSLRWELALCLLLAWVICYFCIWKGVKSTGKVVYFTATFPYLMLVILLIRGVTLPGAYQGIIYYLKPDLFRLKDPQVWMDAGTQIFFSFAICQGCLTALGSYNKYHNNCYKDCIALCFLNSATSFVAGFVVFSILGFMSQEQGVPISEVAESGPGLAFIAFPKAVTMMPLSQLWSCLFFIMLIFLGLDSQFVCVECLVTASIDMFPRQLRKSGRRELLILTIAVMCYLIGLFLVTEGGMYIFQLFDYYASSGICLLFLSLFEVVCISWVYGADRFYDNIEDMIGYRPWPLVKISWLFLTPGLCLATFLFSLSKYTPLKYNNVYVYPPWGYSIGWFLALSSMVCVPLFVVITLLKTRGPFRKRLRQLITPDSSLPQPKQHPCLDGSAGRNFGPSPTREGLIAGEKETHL

Target: T1, hS1a (human betaine/GABA transporter, hBGT) (Homo sapiens, UniProt P48065)
T1 sequence (P48065 1-614 C10Y): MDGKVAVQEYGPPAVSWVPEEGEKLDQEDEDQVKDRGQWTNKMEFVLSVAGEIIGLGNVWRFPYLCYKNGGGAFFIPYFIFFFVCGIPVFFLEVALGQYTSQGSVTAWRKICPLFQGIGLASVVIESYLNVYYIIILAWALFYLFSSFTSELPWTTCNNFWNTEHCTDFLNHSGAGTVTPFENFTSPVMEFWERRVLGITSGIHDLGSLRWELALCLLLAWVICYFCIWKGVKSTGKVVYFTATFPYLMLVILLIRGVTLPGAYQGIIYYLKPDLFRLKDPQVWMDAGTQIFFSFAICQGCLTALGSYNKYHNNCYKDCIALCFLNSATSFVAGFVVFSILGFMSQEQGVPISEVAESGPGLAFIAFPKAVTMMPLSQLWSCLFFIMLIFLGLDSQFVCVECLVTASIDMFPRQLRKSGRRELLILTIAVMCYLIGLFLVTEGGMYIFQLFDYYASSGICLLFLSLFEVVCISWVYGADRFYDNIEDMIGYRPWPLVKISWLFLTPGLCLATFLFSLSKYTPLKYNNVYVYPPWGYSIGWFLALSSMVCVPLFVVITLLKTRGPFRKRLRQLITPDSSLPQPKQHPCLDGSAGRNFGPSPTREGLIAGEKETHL
Test: Inhibition of specific [^3 H]GABA uptake in COS7 (transient) or LMtk- (stable; hS1a-3) cells expressing hS1a
Assay type: cell-based
Parameters: Translation of a long open reading frame predicts a protein of 614 amino acids with 12 putative transmembrane domains; expressed in transfected cells
Details: estimated from data for one or two concentrations of inhibitor (Table 1), not corrected for [^3 H]GABA concentration

SMILES: O=C(O)C1CCCNC1 (stereo not shown) [nipecotic acid]
- IC50: 194 µM and 150 to 250 µM

Several values for one entry are separate records, joined by “and”; a condition that tells them apart may be missing. Identical values can stand only once.
